# Assay results as given in PubChem BioAssay AID624246 (National Center for Advancing Translational Sciences (NCATS), 2012).
# The chains behind the UniProt entries cited, without tags or fusion partners. Where a name states a change or a piece, a line headed by the entry shows the natural chain unless it says otherwise.
# UniProt P11308: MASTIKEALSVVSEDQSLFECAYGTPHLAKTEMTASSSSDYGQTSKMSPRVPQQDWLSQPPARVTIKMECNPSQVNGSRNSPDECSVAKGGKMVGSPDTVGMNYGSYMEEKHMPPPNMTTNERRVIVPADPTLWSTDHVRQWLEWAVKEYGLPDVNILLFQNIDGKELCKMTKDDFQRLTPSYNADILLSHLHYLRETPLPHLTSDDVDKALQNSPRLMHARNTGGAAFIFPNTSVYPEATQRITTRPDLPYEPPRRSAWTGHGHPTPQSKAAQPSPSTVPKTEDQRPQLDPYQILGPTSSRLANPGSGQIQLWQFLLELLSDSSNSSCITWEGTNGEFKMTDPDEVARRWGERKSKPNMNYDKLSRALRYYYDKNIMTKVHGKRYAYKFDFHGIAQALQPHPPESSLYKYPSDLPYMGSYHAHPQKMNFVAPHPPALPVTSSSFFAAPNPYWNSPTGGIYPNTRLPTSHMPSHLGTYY
# The list shows a part of the results, in another mix than the full data. The source made the active and inactive calls. Calls come from the whole dose curve; as a rule, active = well fitted inhibition curve with a large enough effect in the polarisation, with a control signal flat; inconclusive = small, poorly fitted or top-dose-only effect, or effect the other way, or a change in a side signal; inactive = no such curve, though single readings can be large or run the other way; the % refers to the polarisation.
# Target: Transcriptional regulator ERG (Homo sapiens) (UniProt P11308)
# Assay: qHTS for Small Molecule Inhibitors of the ERG Ets/DNA interaction; note: % of control where 0% means no effect
# Details: fluorescence polarization, His-ERG Ets domain / labelled DNA; at 76.9 µM (top of the series)
# Method in brief: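 His-tagged ERG Ets domain (1 uM in the protein solution; 300mM KCl, 50mM Tris-HCl, 1mM EDTA, 1mM DTT, pH 7.5) received compound, then a probe mix of 5 nM fluorescein-DNA and 100nM Texas-615-DNA. Fluorescence polarization was read for both dyes.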
row,Compound,"FP activity, negative = inhibition"
1,CN(C(=O)Cc1ccc(Cl)c(Cl)c1)[C@H]1CCCC[C@H]1N1CCCC1,inactive: -8.88%
2,Cc1ccc(N/C(=N/P(=O)(N2CCOCC2)N2CCOCC2)N2CCOCC2)cc1,inactive: -6.6%
3,Nc1cc(N)c2nonc2c1[N+](=O)[O-],inactive: -3.63%
4,O=C(NC(Sc1ccncn1)C(Cl)(Cl)Cl)c1ccccc1 (stereo not given),inactive: 5.52%
5,CCOP(=O)(Nc1ccccc1)OCC,inactive: -11.4%
6,Cc1cc(SC(NC(=O)c2ccc(F)cc2)C(Cl)(Cl)Cl)ncn1 (stereo not given),inactive: -16.5%
7,Cc1ccc(NP(=O)(Oc2ccccc2F)Oc2ccccc2F)nc1,inactive: 3.06%
8,CN(C(=O)Cc1ccc(Cl)c(Cl)c1)[C@H]1CCCC[C@@H]1N1CCCC1,inactive: -12.1%
9,O=C(O)c1ccccc1[As](=O)(O)O,inactive: 7.4%
10,CC(=O)Nc1ccc([As](=O)(O)O)cc1,inactive: -10%
11,CCCC1OP(N)(=O)OCC1CC (stereo not given),inactive: -8.09%
12,O=P(Nc1nc2ccc(Cl)cc2s1)(c1ccccc1)c1ccccc1,inactive: -3.14%
13,CCN(N=Nc1nonc1N)c1nonc1N,inactive: -11.2%
14,Nc1cccc2ccc([As](=O)(O)O)cc12,inactive: -8.83%
15,Cc1ccc2nc3c(c(C)c2c1)CC(C(Cl)Cl)S3 (stereo not given),inactive: 2.35%
16,Cc1ccc(OP(=O)(Nc2ccc([N+](=O)[O-])cn2)Oc2ccc(C)cc2)cc1,inactive: -13.3%
17,O=[As](O)(c1ccc(O)cc1)c1ccccc1O,inactive: -3.95%
18,C[As](=O)(O)c1cccc(C(=O)O)c1,inactive: -0.333%
19,COc1cc(C(=O)NCC2(N3CCOCC3)CCCCC2)ccc1OCC(C)C,inactive: -4.41%
20,O=[N+]([O-])c1ccc(-c2cc([N+](=O)[O-])c(O)c([N+](=O)[O-])c2)cc1,inactive: -5.93%
21,O=C(OC1CN2CCC1CC2)c1cccc2[nH]cnc12 (stereo not given),inactive: -1.54%
22,CCN(CC)C(=S)SC(NC=O)C(Cl)(Cl)Cl (stereo not given),inactive: 0.0095%
23,CC(C)NC(=O)NP(=O)(Oc1ccccc1)Oc1ccccc1,inactive: 20%

row,Compound,"FP activity, negative = inhibition"
1,O=[N+]([O-])c1cc([N+](=O)[O-])c(-c2ccn[nH]2)s1,inactive: -9.53%
2,CC(C)c1ccc(OP(=O)(Nc2ccccn2)Oc2ccccc2F)cc1 (stereo not given),inactive: -4.58%
3,COC(=O)C1(C)COP(=O)(N2CCCCCC2)OC1 (stereo not given),inactive: -0.4%
4,ClCCSc1nnc(-c2cccnc2)o1,inactive: -5.99%
5,COc1ccc2nc(NP(=O)(c3ccccc3)c3ccccc3)sc2c1,inactive: 4.93%
6,COc1cc(I)ccc1[As](=O)(O)O,inactive: -9.75%
7,O=P1(N(CCCl)CCCl)Nc2ccccc2N1,inactive: -1.3%
8,O=C(OC1CN2CCC1CC2)C12CC3CC(CC(C3)C1)C2 (stereo not given),inactive: 2.23%
9,Cc1cc(=O)[nH]c(N[N+](=O)[O-])n1,inactive: -4.72%
10,Cc1c2c(nc3ccccc13)SC(C(Cl)Cl)C2 (stereo not given),inactive: -3%
11,COc1ccc(N/C(=N/P(=O)(N2CCOCC2)N2CCOCC2)N2CCOCC2)cc1,inactive: -14.1%
12,O=C(COc1ccccc1)OC1CN2CCC1CC2 (stereo not given),inactive: -5.39%
13,O=C(Nc1ccncc1[N+](=O)[O-])c1ccc([N+](=O)[O-])cc1[N+](=O)[O-],inactive: 0.791%
14,CCC(C)N(CC(C)C)C(=S)SC(NC(C)=O)C(Cl)(Cl)Cl (stereo not given),inactive: -1.05%
15,CCOC(=O)c1ccc(NC(=O)C(C)(CCl)SC)cc1 (stereo not given),inactive: -3.76%
16,O=C(OC1CN2CCC1CC2)c1cccc([N+](=O)[O-])c1 (stereo not given),inactive: 0.671%
17,CCCCOc1ccc(C(=O)NCC2(N3CCCCC3)CCCCC2)cc1OC,inactive: -5.09%
18,Cc1cc(SC(NC(=O)c2ccccc2)C(Cl)(Cl)Cl)nc(C(C)C)n1 (stereo not given),inactive: 1.88%
19,CC1CCNP(=O)(N(CCCl)CCCl)O1 (stereo not given),inactive: 9.18%
20,CCOC(=O)Nc1ccc([As](=O)(O)O)c(O)c1,inactive: 11.1%
21,O=[N+]([O-])c1ccc(Nc2ccc(Oc3ccc([N+](=O)[O-])cc3[N+](=O)[O-])cc2)c([N+](=O)[O-])c1,inactive: -2.21%
22,O=P(Nc1ccccn1)(c1cccc2ccccc12)c1cccc2ccccc12,inactive: 10.1%
23,Cc1cc(SC(NC=O)C(Cl)(Cl)Cl)ncn1 (stereo not given),inactive: -11.9%

row,Compound,"FP activity, negative = inhibition"
1,CCOC(=O)Nc1cccc([As](=O)(O)O)c1,inactive: -4.11%
2,O=C(/C=C/c1ccccc1)OC1CN2CCC1CC2 (stereo not given),inactive: 7.16%
3,CCCC1OP(=O)(Nc2ccccc2)OCC1CC (stereo not given),inactive: 7.78%
4,CN(C)C1(CNC(=O)c2ccc(S(C)(=O)=O)cc2)CCCCC1,inactive: -1.96%
5,CC1CCC(C(C)C)C(OP(=O)(Nc2ccccn2)c2ccccc2)C1 (stereo not given),inactive: 2.92%
6,Cc1ccc(C(=O)OC2CN3CCC2CC3)cc1 (stereo not given),inactive: 8.43%
7,O=P1(Nc2ccc(Br)cn2)COc2ccccc2OC1,inactive: -1.09%
8,NS(=O)(=O)c1cccc(NC(=O)COC(=O)C(O)(c2ccccc2)c2ccccc2)c1,inactive: -2.61%
9,O=[As](O)(c1cccs1)c1cccs1,inactive: -6.35%
10,Cc1ccc(OCC(=O)OC2CN3CCC2CC3)cc1 (stereo not given),inactive: 11.5%
11,Nc1cccc([As](=O)(O)c2ccccc2)c1,inactive: -2.04%
12,O=P1(Nc2ncccn2)COc2ccccc2OC1,inactive: -5.9%
13,Clc1n[nH]nc1-c1nn[nH][15n]1,inactive: 9.16%
14,CC(C)(C)C(=O)NC(Sc1ncccn1)C(Cl)(Cl)Cl (stereo not given),inactive: 3.52%
15,CN(CCCl)Cc1cc(Cl)c(NC2=NCCN2)c(Cl)c1,inactive: 1.58%
16,CCOP(=O)(Nc1ccc(C)cn1)OCC,inactive: 7.59%
17,O=P1(Nc2ccccn2)COc2ccccc2OC1,inactive: -3.07%
18,CCC1=CC2Cc3nc4ccc(Cl)cc4c(N)c3C(C1)C2 (stereo not given),inactive: -7.78%
19,CCOP(=O)(NC(=NC(C)c1ccccc1)NC(C)c1ccccc1)OCC (stereo not given),inactive: -2.79%
20,CC1(CBr)Cn2c(nc3ccccc3c2=O)S1 (stereo not given),inactive: -1.22%
21,CC(C)/C=N\N=C(\N)N[N+](=O)[O-],inactive: 9.98%
22,CN(C(=O)Cc1ccc(Cl)c(Cl)c1)[C@@H]1CCCC[C@H]1N1CCCC1,inactive: 3.64%
23,COc1ccccc1CNC(=O)COC(=O)C(O)(c1ccccc1)c1ccccc1,inactive: 1.74%

row,Compound,"FP activity, negative = inhibition"
1,O=[As](O)(c1cccc(O)c1)c1cccc(O)c1,inactive: 106%
2,Cc1cccc(OCC(=O)OC2CN3CCC2CC3)c1 (stereo not given),inactive: -0.0251%
3,COc1cc(C(=O)NCC2(N3CCOCC3)CCCCC2)cc(Cl)c1OC(C)C,inactive: 12.9%
4,O=[As](O)(O)c1cccnc1,inactive: -11%
5,CS(=O)(=O)c1ccc(Cl)c(NC(=O)COC(=O)C(O)(c2ccccc2)c2ccccc2)c1,inactive: 8.94%
6,O=C(OC1CN2CCC1CC2)c1ccc(Cl)cc1 (stereo not given),inactive: -10.4%
7,COc1cc(C2NCCC3(OCCO3)C2(C)C)cc(OC)c1OC (stereo not given),inactive: 2.27%
8,CCOP(=O)(Nc1cccc2ccccc12)OCC,inactive: -0.0756%
9,CCCOP(=S)(Nc1nc(N)cc(=O)[nH]1)OCCC,inactive: 2.59%
10,Nc1cccc2c([As](=O)(O)O)cccc12,inactive: -1.57%
11,Cc1ccc(NCCc2c([N+](=O)[O-])cc([N+](=O)[O-])cc2[N+](=O)[O-])cc1,inactive: 41.5%
12,Nc1ccccc1[As](=O)(O)c1ccccc1,inactive: -4.74%
13,O=C(O)COc1ccc([As](=O)(O)O)cc1[N+](=O)[O-],inactive: 4.87%
14,CS(=O)(=O)c1cc([N+](=O)[O-])c2no[n+]([O-])c2c1,inactive: -3.61%
15,O=P(Nc1nccs1)(Oc1ccccc1)Oc1ccccc1,inactive: -0.613%
16,CN(C)C(=O)c1cc([N+](=O)[O-])cc2c1-c1c(cc([N+](=O)[O-])cc1[N+](=O)[O-])C2=O,inactive: -5.73%
17,O=[N+]([O-])c1ccc2c(c1)nnn2O,inactive: 7.38%
18,CN(C(=O)Cc1ccc(Cl)c(Cl)c1)[C@H]1CC[C@@]2(CCCO2)C[C@@H]1N1CCCC1,inactive: 1.45%
19,N#CCCN(C(=O)COC(=O)C(O)(c1ccccc1)c1ccccc1)c1ccc(F)cc1,inactive: 16%
20,CN(C(=O)Cc1ccccc1)[C@@H]1CC[C@]2(CCCO2)C[C@H]1N1CCCC1,inactive: -0.458%
21,NC(=O)Nc1ccc([As](=O)(O)O)cc1,inactive: 8.6%
